These are literature values, as cited in patent US20060079497A1, “Lavendamycin analogues and methods of synthesizing and using lavendamycin analogues” (Ball State University, priority 2004, published 2006).

This data set concerns mice. Particulars: tumor treatment trial, given for five consecutive days; cited from earlier work.

In the case of mitomycin C, the maximum tolerated dose entry was “less than 2.0 mg/kg”.
